# Apparent affinities of Ab-14 variants for a coronavirus HR2 peptide

The measurements come from Engelhart et al. 2022 (doi:10.1038/s41597-022-01779-4) through the FLAb antibody collection.

All variants were tested on one target, the spike HR2 peptide PDVDLGDISGINAS (SARS-CoV-2).

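The starting antibody came from a phage panning campaign against this peptide. The library (AAYL49) carries one to three amino acid substitutions per variant, with no insertions or deletions. Affinity was read by AlphaSeq, a pooled yeast mating assay with surface-displayed partners. The frequency of each diploid, read from paired DNA barcodes, reflects how well the two displayed proteins bind. A regression on co-assayed BCL2-family reference pairs converts the normalised counts of each replicate to an apparent Kd. Each pool was mated in three replicate cultures.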

Parent: Ab-14, a human scFv built as VH, a 15-residue (Gly4Ser)3 linker, VL. Only the CDRs of the heavy chain vary.
VH: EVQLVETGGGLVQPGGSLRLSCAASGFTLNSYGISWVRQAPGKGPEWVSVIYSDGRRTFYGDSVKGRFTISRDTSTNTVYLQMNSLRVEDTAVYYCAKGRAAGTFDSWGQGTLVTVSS
VL: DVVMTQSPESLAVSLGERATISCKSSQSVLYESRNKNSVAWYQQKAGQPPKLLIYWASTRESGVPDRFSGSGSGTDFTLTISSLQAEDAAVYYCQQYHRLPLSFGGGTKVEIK

Positions count from residue 1 of the parent VH; T28R puts R in place of T.
All variants listed here change A102 of the VH, counted from its first residue.
Numbers give log10(Kd / nM), so 0 is 1 nM and 3 is 1 µM. Smaller is tighter.
A mean of the replicates is given; it leaves out those without a signal.
"nd" marks a missing value. The strain was present, yet no cells mated with the target were sequenced in any replicate, which points to weak or no binding.
Three control strains display no target. For library AAYL49, 15% of the pairings with them gave a signal, with a median of 4.06 and one signal in twenty below 2.83, so weak values seen in few replicates may be background. For each scFv, signals with the empty controls are counted beside the result.
For reference, the parent read 0.65 as the reference entry and 4.11 (one replicate of three) as a member of this library.

- T28R+D62W+A102D -> nd (0 of 3 replicates; controls 1 of 9)
- R57L+A102G+D106S -> 3.04 (1 of 3 replicates; controls 1 of 9)
- S35E+A102M -> nd (0 of 3 replicates; controls 1 of 9)
- S63D+A102W+F105W -> 4.33 (2 of 3 replicates; controls 3 of 9)
- G26L+A102Q+G103E -> nd (0 of 3 replicates; controls 0 of 9)
- F27D+S35E+A102G -> 5.32 (1 of 3 replicates; controls 0 of 9)
- T28S+G99R+A102H -> 0.86 (3 of 3 replicates; controls 0 of 9)
- L29R+A102P -> nd (0 of 3 replicates; controls 0 of 9)
- G26Q+G61M+A102C -> 3.65 (3 of 3 replicates; controls 6 of 9)
- G55F+A102N+F105R -> 3.20 (1 of 3 replicates; controls 1 of 9)
- I34Y+A102R -> 2.44 (1 of 3 replicates; controls 0 of 9)
- A101P+A102L -> nd (0 of 3 replicates; controls 0 of 9)
- G61M+G99R+A102M -> nd (0 of 3 replicates; controls 0 of 9)
- F59S+A102C -> 5.02 (3 of 3 replicates; controls 6 of 9)
- Y32G+T58C+A102V -> nd (0 of 3 replicates; controls 1 of 9)
- G99T+A102P+S107K -> 4.40 (2 of 3 replicates; controls 2 of 9)
- G33W+G99K+A102P -> nd (0 of 3 replicates; controls 0 of 9)
- A102M -> 0.69 (3 of 3 replicates; controls 1 of 9)
- V64C+A102W+D106Y -> 4.74 (3 of 3 replicates; controls 7 of 9)
- R56D+A102C+F105Y -> nd (0 of 3 replicates; controls 0 of 9)
- A102E+T104A -> 1.10 (3 of 3 replicates; controls 4 of 9)
- I51F+A102C -> nd (0 of 3 replicates; controls 1 of 9)
- S35K+S53T+A102D -> nd (0 of 3 replicates; controls 1 of 9)
- T28G+Y52G+A102R -> nd (0 of 3 replicates; controls 0 of 9)
- L29W+G99E+A102C -> nd (0 of 3 replicates; controls 2 of 9)
- S31W+G33R+A102F -> 5.23 (3 of 3 replicates; controls 4 of 9)
- Y32H+S53Q+A102Y -> nd (0 of 3 replicates; controls 0 of 9)
- T28R+V64F+A102I -> 4.00 (3 of 3 replicates; controls 1 of 9)
- G61A+A102D -> nd (0 of 3 replicates; controls 1 of 9)
- K65V+G99Q+A102R -> 5.06 (1 of 3 replicates; controls 1 of 9)
- K65S+A102D -> 1.92 (3 of 3 replicates; controls 3 of 9)
- S35A+G99V+A102R -> 3.67 (1 of 3 replicates; controls 0 of 9)
- Y32F+G33D+A102P -> nd (0 of 3 replicates; controls 1 of 9)
- R56C+K65H+A102D -> nd (0 of 3 replicates; controls 0 of 9)
- Y32Q+Y52C+A102F -> nd (0 of 3 replicates; controls 1 of 9)

For reference, 6 entries of the list once more:

* A101P+A102L = nd (0 of 3 replicates; controls 0 of 9)
* Y32H+S53Q+A102Y = nd (0 of 3 replicates; controls 0 of 9)
* A102E+T104A = 1.10 (3 of 3 replicates; controls 4 of 9)
* R56D+A102C+F105Y = nd (0 of 3 replicates; controls 0 of 9)
* G26Q+G61M+A102C = 3.65 (3 of 3 replicates; controls 6 of 9)
* F59S+A102C = 5.02 (3 of 3 replicates; controls 6 of 9)